Bioassay records from PubChem BioAssay.
miR-21 FLuc – miR-21 reporter, rising signal | 340,000 tested, under 10 active | AID 2288 | HeLa miR-21 FLuc reporter, luciferase, 48 h | Potency, µM (titrated, usually from 38.3 µM), for inactives: at the highest dose reporter change, positive = more light; active = well fitted rising curve with a large enough effect; inconclusive = small, poorly fitted or top-dose-only effect; inactive = no such curve, though single readings can be large or run the other way;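 further: % of control where 0% means no effect; miR-21 action dims this reporter so a rising signal means less miR-21 action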
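HeLa cells endogenously expressing miR-21, stably carrying CMV-driven firefly luciferase with a downstream miR-21 binding site, 2000 cells/well. Titrations up to approximately 40 uM, 48 hours; luciferase luminescence read.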
GALK inhibitor – galactokinase (human) inhibition; P51570; Purified GALK, Kinase-Glo residual ATP luminescence; Potency, µM (top dose mostly 57.5 µM), inactives show at the top dose activity change, negative = inhibition, most hits filed as inhibitors; 270,000 tested, 0.007% active; AID 1868; further: potency means the concentration at half of the fitted maximal effect; on the % scale 0 is the no-effect control and ±100 the full control effect
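Compounds were pin-transferred into ATP buffer (35 uM final), then GALK plus galactose (5 nM, 100 uM final) was added. After 1 h at room temperature, Kinase-Glo Plus was added and luminescence read after 10 min.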
A549 tox – A549 cytotoxicity, counter-screen for Nrf2 inhibitors; Potency, µM (top dose mostly 46 µM), without a hit: top-dose activity change, negative = cytotoxicity, hits mostly inhibitors; AID 504648; 390,000 tested, 0.16% active; A549 ARE-Fluc cells, CellTiter-Fluor viability, 18-24 h; further: potency means the concentration at half of the fitted maximal effect; on the % scale 0 is the no-effect control and ±100 the full control effect
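Cytotoxicity counterscreen: CellTiter-Fluor fluorescence was measured in A549 ARE_Fluc cells after 18-24 h of compound exposure in a concentration series. The subsequent BugLite luminescent read reports ARE-luciferase activity.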
Nrf2 activator – Nrf2 pathway activation; AREc32 ARE-luciferase reporter (MCF7-derived line), luminescence, 24 h; Potency, µM (top dose mostly 46.1 µM), for the others: at the top dose activation, most hits filed as activators; 410,000 tested, 0.31% active; AID 624171; further: potency means the concentration at half of the fitted maximal effect; % of control where 0% means no effect; nearly all actives have a fitted effect of over 65% in size
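Cells of the AREc32 ARE-luciferase line are plated in OPTI-MEM containing 5% FBS and left overnight at 37 deg C. Compounds are pinned in, incubation continues 24 hr, and firefly luciferase signal is then measured.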
PI4K2A inh – blocks human PI4K2A kinase activity | purified PI4K2A, ADP-Glo luminescence, 1 h; hits give low values | activity change, negative = inhibition, % at 76.9 µM | 420,000 tested, 0.13% active | AID 1346378; in the data active means activity change below about -50%; inconclusive means mostly about -30% to -49%;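 further: -100% = wells without enzyme as full effect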
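In this quantitative HTS, ADP production by PI4K2A was quantified luminescently after 1 h at ambient temperature; 100 microM adenosine served as plate-quality control.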
Nrf2 block – inhibitors of Nrf2 signaling. A549 ARE-Fluc reporter, luciferase luminescence, 18-24 h. AID 504444. 360,000 tested, 2.1% active. Potency, µM (doses to about 46 µM), for the others: at the top dose activity change, negative = inhibition, usual class: inhibitors; further: potency means the concentration at half of the fitted maximal effect; on the % scale 0 is the no-effect control and ±100 the full control effect; nearly all actives have a fitted effect of over 60% in size
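Reporter: ARE-Fluc in A549. Exposure: 18-24 h, 37 °C, 5% CO2, 5% FBS OPTI-MEM. Readouts: fluorescent cytotoxicity (CellTiter-Fluor), then luminescent Nrf2 signal after BugLite.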
An asterisk follows results filed as active; i = inactive; u = inconclusive; x = no result given; ! = repeats disagree; [ ] = dose if it differs, or a comment. Rows were chosen to be rich in hits. Some 2.2% of all compounds tested hit in one or more screens of this group. Unless noted, the call rests on the fitted dose curve; in most records, active means well fitted curve in the direction sought with a large enough effect; inconclusive means small, poorly fitted or top-dose-only effect, or another doubt; inactive means no such curve, though single readings can be large; an effect the other way counts as inactive or inconclusive.

Sample of the layout (5 entries):
Order of values: miR-21 FLuc | GALK inhibitor | A549 tox | Nrf2 activator | PI4K2A inh | Nrf2 block
1	CCn1c(SCC(=O)c2[nH]c(C)c(C(C)=O)c2C)nnc1-c1cccs1
  25.1% | 1.0% | -3.4% | 5.3% | 2.9 | u
2	Oc1ccc(N=Nc2ccc3ccccc3c2)cc1
  -32.9% | 0.9% | -22.8% | 10.1% | -14.8 | 2.59µM*
3	COc1cc(N=Nc2ccc3ccccc3c2)ccc1O
  -53.8% | -8.1% | -11.4% | 12.7% | 1.3 | 0.8%
4	COC(=O)c1cc(S(=O)(=O)N2CCCN(C(C)=O)CC2)cn1C
  x | x | x | x | 4.7 | x
5	CCC1=Nc2cc(C(=O)N3CCC(C)CC3)ccc2Sc2ccc(C)cc21
  -6.1% | x | u | 3.7% | -2.3 | 18.4µM*

This part in full (from the top)
Order of values: miR-21 FLuc | GALK inhibitor | A549 tox | Nrf2 activator | PI4K2A inh | Nrf2 block
1	CCn1c(SCC(=O)c2[nH]c(C)c(C(C)=O)c2C)nnc1-c1cccs1
  25.1% | 1.0% | -3.4% | 5.3% | 2.9 | u
2	Oc1ccc(N=Nc2ccc3ccccc3c2)cc1
  -32.9% | 0.9% | -22.8% | 10.1% | -14.8 | 2.59µM*
3	COc1cc(N=Nc2ccc3ccccc3c2)ccc1O
  -53.8% | -8.1% | -11.4% | 12.7% | 1.3 | 0.8%
4	COC(=O)c1cc(S(=O)(=O)N2CCCN(C(C)=O)CC2)cn1C
  x | x | x | x | 4.7 | x
5	CCC1=Nc2cc(C(=O)N3CCC(C)CC3)ccc2Sc2ccc(C)cc21
  -6.1% | x | u | 3.7% | -2.3 | 18.4µM*
6	CNS(=O)(=O)c1cccc(C(=O)OCC(=O)c2ccc[nH]2)c1
  x | x | -1.4% | 0.0% | -14.7 | 6.8%
7	CNS(=O)(=O)c1cccc(C(=O)OCC(=O)c2ccc3c(c2)OCCO3)c1
  x | x | -8.3% | -0.4% | -4.0 | 20.6µM*
8	CCCCCCCOC(=O)C1=C(C)Nc2ncnn2C1c1cccs1 (stereo not drawn)
  6.8% | -0.5% | -5.3% | -0.9% | 1.2 | 25.9µM*
9	CN1CCCC2(CCCN(Cc3nc(Cc4cccc(C(F)(F)F)c4)no3)C2)C1 (stereo not drawn)
  -1.6% | -3.7% | 0.9% | 5.4% | -3.5 | 8.8%
10	c1cc(C2CCN(Cc3nc(-c4ccc5c(c4)OCO5)no3)CC2)ccn1
  15.0% | 2.9% | -6.6% | 2.7% | -7.9 | 16.4µM*
11	FC(F)(F)c1cccc(Cc2noc(CN3CCC(c4ccncc4)CC3)n2)c1
  25.0% | -0.7% | -1.9% | 2.9% | 0.0 | 18.4µM*
12	CC(=O)c1cc(-c2cnn(Cc3ccccc3)c2)c(=O)n2c1CCC2
  x | x | x | x | -13.5 | x
13	CCN1CCN(c2cc(-c3ccc(F)cc3)c3c(n2)CCCCCC3)CC1
  x | x | x | x | i | x
14	O=C(CSc1nnc(-c2cccnc2)n1Cc1ccco1)Nc1cc(Cl)ccc1F
  x | x | x | x | 0.1 | x
15	CCOC(=O)N1CCC(n2c(SCC(=O)NCc3ccccc3)nc3ccccc3c2=O)CC1
  -4.9% | -1.2% | -3.3% | 0.4% | 1.6 | -15.0%
16	CCOC(=O)N1CCC(n2c(SCC(=O)Nc3ccccc3OC)nc3ccccc3c2=O)CC1
  -11.7% | -0.9% | x | -0.4% | -5.6 | 14.6µM*
17	O=C(Nc1ccccc1)c1cccc(S(=O)(=O)Nc2ccccn2)c1
  2.2% | 2.0% | 3.3% | 0.2% | -4.4 | -8.2%
18	O=C(Nc1ccc(Br)cc1)c1cccc(S(=O)(=O)Nc2ccccn2)c1
  -1.2% | -2.9% | u | 0.7% | -2.9 | 13µM*
19	Cc1cccc(C(=O)Nc2ccc(-c3nc4cc(C(C)C)ccc4o3)cc2)c1
  18.9% | x | 1.9% | 5.3% | 0.1 | 14.6µM*
20	COc1cc(C(=O)Nc2ccc(-c3nc4cc(C)ccc4o3)c(O)c2)cc(OC)c1OC
  7.4% | -1.4% | -16.4% | 0.0% | -0.8 | 20.6µM*
21	COc1cc(OC)cc(C(=O)Nc2ccc(-c3nc4cc(C(C)C)ccc4o3)cc2)c1
  -9.4% | x | -4.2% | 13.8% | -2.1 | 14.6µM*
22	CCc1ccc2oc(-c3cc(NC(=O)c4cc(OC)c(OC)c(OC)c4)ccc3O)nc2c1
  -15.2% | x | -6.2% | 3.8% | -0.4 | 3.9%
23	CCOc1ccc(C(=O)Nc2ccc(-c3nc4cc(C(C)C)ccc4o3)cc2)cc1Cl
  -10.5% | x | -3.7% | 3.8% | -4.0 | -27.5%
24	Nc1ccc(S(=O)(=O)N2CCN(S(=O)(=O)c3ccc4c(c3)OCCO4)CC2)cc1
  x | x | 3.3% | x | x | 4.3%
25	CC(C)[C@@H]1CC[C@@H](C)C[C@@H]1P(=O)(c1ccccc1)c1ccccc1
  x | x | x | x | 4.2 | x
26	COc1ccc(-c2ccc3ncnc(NCCc4cnc[nH]4)c3c2)cc1OC
  x | x | u | x | x | -16.8%
27	CC(C)[C@H](N)C(=O)N1CCC[C@@H]1C(=O)N1CCC2CCN(S(=O)(=O)c3ccccc3)CC21 (stereo partly drawn)
  x | x | x | x | -4.1 | x
28	C=CCOc1ccc(/C=C/C(=O)OCC(=O)N2CCC(c3ccccc3)=N2)cc1
  x | x | -0.7% | 1.0% | -0.4 | 20.6µM*
29	Cc1ccccc1C1=NC(C(F)(F)F)(C(F)(F)F)c2c(n(C)c(=O)n(C)c2=O)N1
  -16.0% | 2.1% | 6.1% | 2.3% | 5.1 | -26.5%
30	Cn1c2c(c(=O)n(C)c1=O)C(C(F)(F)F)(C(F)(F)F)N=C(c1ccc(Cl)cc1)N2
  28.1% | 4.9% | 5.8µM* | 0.9% | -5.0 | 2.31µM*

The listing continues:
Labels used below: A = miR-21 FLuc; B = GALK inhibitor; C = A549 tox; D = Nrf2 activator; E = PI4K2A inh; F = Nrf2 block
#31 COc1cc(C2c3c([nH]c(=O)[nH]c3=O)Nc3ccc4ccccc4c32)ccc1O (stereo not drawn)
  A: 0.1%	B: 9.0%	C: -2.0%	D: 0.5%	E: 0.6	F: -5.1%

#32 COc1cc(C2c3c([nH]c(=O)[nH]c3=O)Nc3ccc4ccccc4c32)cc(OC)c1OC (stereo not drawn)
  A: 1.5%	B: -17.4%	C: 0.6%	D: 1.5%	E: -60.1*	F: 5.4%

#33 CC1C(=O)Nc2ccc(S(=O)(=O)Nc3ccccc3Br)cc2NC1=O (stereo not drawn)
  A: -11.4%	B: x	C: 1.5%	D: -0.4%	E: -0.2	F: 16.4µM*!

#34 O=C1OC(Nc2ccc3c(c2)OCO3)c2ccccc21 (stereo not drawn)
  A: u	B: 5.1%	C: -16.8%	D: 11.2µM*	E: -5.3	F: u

#35 O=C1OC(Nc2ccc(F)c([N+](=O)[O-])c2)c2ccccc21 (stereo not drawn)
  A: -11.3%	B: x	C: -8.9%	D: -0.6%	E: -5.4	F: -14.3%

#36 CNC(=O)/C(C#N)=C/c1c(N(Cc2ccccc2)Cc2ccccc2)nc2c(C)cccn2c1=O
  A: -11.2%	B: -0.3%	C: u	D: 4.1%	E: 0.8	F: 25.9µM*

#37 O=C1C(=O)C(c2ccc(O)cc2O)Oc2cc(O)cc(O)c21 (stereo not drawn)
  A: x	B: x	C: -11.5%	D: x	E: x	F: 7.4%

#38 CCn1cc([N+](=O)[O-])c(C(=O)Nc2nc(-c3ccc(C)c(C)c3)c(C)s2)n1
  A: -4.2%	B: 1.3%	C: -12.7%[1.84 µM]	D: u	E: 3.1	F: 16.4µM*

#39 O=C(N1CCOCC1)N1CCN(c2ccccc2)CC1
  A: 0.5%	B: -0.8%	C: -4.3%	D: -0.7%	E: -3.4	F: 5.7%

#40 COc1ccccc1N1CCN(C(=S)Nc2ccc(S(=O)(=O)N3CCOCC3)cc2)CC1
  A: 16.4%	B: -2.3%	C: -18.4%	D: 3.1%	E: 0.2	F: u

#41 O=C(N1CCOCC1)N1CCN(c2ccccc2F)CC1
  A: -2.2%	B: 2.1%	C: 14.8%	D: 2.1%	E: -61.9*	F: 12.6%

#42 O=S(=O)(c1ccc(NC(=S)N2CCN(c3ccccc3F)CC2)cc1)N1CCOCC1
  A: 15.3%	B: 0.4%	C: -2.8%	D: -0.8%	E: -0.2	F: 13µM*

#43 Cc1c(P(=S)(c2ccccc2)c2ccccc2)c2ccccc2n1C(=O)NCc1ccc(F)cc1
  A: x	B: x	C: 2.8%	D: x	E: x	F: u

#44 COc1ccc(N2CCCN(CC(=O)Nc3ccc(Cl)c(Cl)c3)CC2)cc1
  A: x	B: x	C: x	D: x	E: 0.4	F: x
